Assay results reported in patent US5318967A, “2,3,3a,4,5,9b-hexahydro-1H-benzo[e]indole derivatives” (priority 1991, dated 1994).

Tested on: rat
Test: Toxicity, lowest lethal dose (LLD), rat
Details: sc rat

CNC(=O)Oc1ccc2c(c1)[C@]1(C)CCN(C)[C@@H]1N2C [Physostigmin, physostigmin, reference compound]
LLD (lowest lethal dose): 1 mg/kg
